Earlier results as cited in patent US11325944B2 (priority 2017, dated 2022).
pKd: −log10 of the molar value.

Chains of the proteins cited; added tags and fusions are not shown.
UniProt P33535, whole entry: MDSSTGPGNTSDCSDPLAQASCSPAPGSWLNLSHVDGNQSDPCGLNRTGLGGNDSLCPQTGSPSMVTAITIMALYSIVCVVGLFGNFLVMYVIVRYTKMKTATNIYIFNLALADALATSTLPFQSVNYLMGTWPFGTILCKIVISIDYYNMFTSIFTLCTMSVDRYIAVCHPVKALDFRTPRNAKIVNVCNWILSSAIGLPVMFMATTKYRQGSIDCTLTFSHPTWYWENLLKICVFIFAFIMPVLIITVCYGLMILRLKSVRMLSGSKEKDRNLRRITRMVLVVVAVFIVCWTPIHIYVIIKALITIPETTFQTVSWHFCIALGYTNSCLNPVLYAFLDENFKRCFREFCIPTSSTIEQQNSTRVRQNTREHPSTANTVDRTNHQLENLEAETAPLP

Biological target: T1, MOR (Rattus norvegicus, UniProt P33535)
T1 construct: expressed in transfected cells; isolated membranes
Conditions: μ opioid receptor, CHO cell membranes; read-out: Kd of radioligand

Q: With “[D-Ala^2, NMePhe^4, glyol]enkephalin [[^3H]-DAMGO]” as the substance, how does the pKd read?
A: The pKd was 9.31.
